This assay relates to HT29. The assay can be described thus: CNT with cetuximab and/or bevacizumab, 2D, spheroid, 3D (Example 4). The note with it: for CNT (%) Average value / CNT (%) Median value: cetuximab 1 mg/mL and/or bevacizumab 2 μg per well, 72 hours. Type of assay: cell-based, human. The text has this:
Moreover, for comparison, in place of the above cell structures, structures were produced by culturing cancer cells so as to form a single layer in a general culture container (2D method), and spheroids were produced by spheroid culture of a mixture of 2×10^6 NHDF, 3×10^4 HUVEC, and 2×10^4 HT29 (spheroid method). These were similarly cultured in the presence of bevacizumab and cetuximab.

Consider cetuximab, for which the CNT entry runs as follows: (2D cultures and spheroids) “about 60%”; (cell structures of the present Example, 3D) “low”. Further, the “CNT (%) Average value” came out at 62.1% (2D), 70.4% (3D) and 64.9% (Spheroid). In addition, the “CNT (%) Median value” (2D) stood at 60.5%, the “CNT (%) Median value” (3D) is listed as 69.4% and the “CNT (%) Median value” (Spheroid) worked out at 61.2%.

These data come from US11249070B2, “Anti-cancer drug assessment method” (TOPPAN PRINTING CO., LTD., priority 2016, dated 2022).
